What is called Km is the concentration of substrate that gives half-maximal velocity.

For the data set, the system named is NC[C@H](F)CC(=O)O. The conditions noted are these: Sus scrofa.

“4-aminobutyrate aminotransferase, mitochondrial (Sus scrofa), P80147”: the Km was determined as 49 µM.

The values are drawn from ChEMBL document CHEMBL4613261, “Metabolic and Pharmaceutical Aspects of Fluorinated Compounds” (J Med Chem, 2020).
